{"source": "PubChem BioAssay AID760", "about": "(NMMLSC, 2007)", "note": "Only a part is listed here, and it is no random draw. Active and inactive are the calls of the source.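 Rule for the calls: active = GTP binding activity at least 20 points away from 100%, either lowered or raised; inconclusive = signal likely due to the compound's own green fluorescence; inactive = the rest.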"}
{"target": "Ras-related protein Rab-2A (Canis lupus familiaris) (UniProt P61105)", "assay": "modulators of GTP binding to Rab2A wildtype, primary screen, biochemical, dog, bead-based flow cytometry, multiplex (AID 760);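 note: 0% = beads with excess unlabeled GTP and 100% = no-compound control corrected for plate trend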", "settings": "GST-Rab2 wt beads, Bodipy-GTP binding, at 10 µM"}
{"smiles": "O=P(Nc1ccccn1)(c1cccc2ccccc12)c1cccc2ccccc12", "GTP binding activity": "inactive: 95%"}
{"smiles": "Cc1cc(SC(NC=O)C(Cl)(Cl)Cl)ncn1", "note": "(stereo not given)", "GTP binding activity": "inactive: 99%"}
{"smiles": "Cc1cc(SC(NC(=O)c2ccccc2)C(Cl)(Cl)Cl)nc(C(C)C)n1", "note": "(stereo not given)", "GTP binding activity": "inactive: 100%"}
{"smiles": "CCC(C)N(CC(C)C)C(=S)SC(NC(C)=O)C(Cl)(Cl)Cl", "note": "(stereo not given)", "GTP binding activity": "inactive: 98%"}
{"smiles": "COP1(=S)c2c(C)nn(CCC#N)c2N=C(c2ccc(F)cc2)N1C", "note": "(stereo not given)", "GTP binding activity": "inactive: 98%"}
{"smiles": "O=C(COc1ccccc1)OC1CN2CCC1CC2", "note": "(stereo not given)", "GTP binding activity": "inactive: 103%"}
{"smiles": "COc1ccc(N/C(=N/P(=O)(N2CCOCC2)N2CCOCC2)N2CCOCC2)cc1", "GTP binding activity": "inactive: 98%"}
{"smiles": "Cc1cc(=O)[nH]c(N[N+](=O)[O-])n1", "GTP binding activity": "inactive: 100%"}
{"smiles": "Cc1c2c(nc3ccccc13)SC(C(Cl)Cl)C2", "note": "(stereo not given)", "GTP binding activity": "inactive: 100%"}
{"smiles": "COc1ccc2nc(NP(=O)(c3ccccc3)c3ccccc3)sc2c1", "GTP binding activity": "inactive: 97%"}
{"smiles": "ClCCSc1nnc(-c2cccnc2)o1", "GTP binding activity": "inactive: 100%"}
{"smiles": "CC(C)NC(=O)NP(=O)(Oc1ccccc1)Oc1ccccc1", "GTP binding activity": "inactive: 98%"}
{"smiles": "CCN(CC)C(=S)SC(NC=O)C(Cl)(Cl)Cl", "note": "(stereo not given)", "GTP binding activity": "inactive: 95%"}
{"smiles": "O=[N+]([O-])c1cc([N+](=O)[O-])c(-c2ccn[nH]2)s1", "GTP binding activity": "inactive: 97%"}
{"smiles": "Cc1ccc2nc3c(c(C)c2c1)CC(C(Cl)Cl)S3", "note": "(stereo not given)", "GTP binding activity": "inactive: 98%"}
{"smiles": "O=[N+]([O-])c1ccc2c(c1)nnn2O", "GTP binding activity": "inactive: 101%"}
{"smiles": "CCOP1(=S)c2c(C)nn(CCC#N)c2N=C(c2ccc(F)cc2)N1C", "note": "(stereo not given)", "GTP binding activity": "inactive: 96%"}
{"smiles": "CCOP1(=S)c2c(C)nn(CCC#N)c2N=C(c2ccccc2F)N1C", "note": "(stereo not given)", "GTP binding activity": "inactive: 98%"}
{"smiles": "O=P(Nc1nccs1)(Oc1ccccc1)Oc1ccccc1", "GTP binding activity": "inactive: 99%"}
{"smiles": "O=P(Nc1nccs1)(c1ccccc1)c1nc2ccccc2s1", "note": "(stereo not given)", "GTP binding activity": "inactive: 100%"}
{"smiles": "Cc1ccc(NCCc2c([N+](=O)[O-])cc([N+](=O)[O-])cc2[N+](=O)[O-])cc1", "GTP binding activity": "inactive: 97%"}
{"smiles": "COc1cc(C2NCCC3(OCCO3)C2(C)C)cc(OC)c1OC", "note": "(stereo not given)", "GTP binding activity": "inactive: 93%"}
{"smiles": "CCOP(=O)(Nc1cccc2ccccc12)OCC", "GTP binding activity": "inactive: 101%"}
{"smiles": "COc1cc(C(=O)NCC2(N3CCOCC3)CCCCC2)cc(Cl)c1OC(C)C", "GTP binding activity": "inactive: 95%"}
{"smiles": "Cc1cccc(OCC(=O)OC2CN3CCC2CC3)c1", "note": "(stereo not given)", "GTP binding activity": "inactive: 103%"}
{"smiles": "CC(C)/C=N\\N=C(\\N)N[N+](=O)[O-]", "GTP binding activity": "inactive: 96%"}
{"smiles": "O=P1(Nc2ccccn2)COc2ccccc2OC1", "GTP binding activity": "inactive: 101%"}
{"smiles": "Clc1n[nH]nc1-c1nn[nH][15n]1", "GTP binding activity": "inactive: 102%"}
{"smiles": "O=P1(Nc2ncccn2)COc2ccccc2OC1", "GTP binding activity": "inactive: 101%"}
{"smiles": "Cc1ccc(OCC(=O)OC2CN3CCC2CC3)cc1", "note": "(stereo not given)", "GTP binding activity": "inactive: 100%"}
{"smiles": "O=P1(Nc2ccc(Br)cn2)COc2ccccc2OC1", "GTP binding activity": "inactive: 97%"}
{"smiles": "Cc1nn(-c2ccccc2)c2c1P(=O)(N1CCOCC1)N(C)C(c1ccccc1)=N2", "note": "(stereo not given)", "GTP binding activity": "inactive: 101%"}
{"smiles": "CC1CCC(C(C)C)C(OP(=O)(Nc2ccccn2)c2ccccc2)C1", "note": "(stereo not given)", "GTP binding activity": "inactive: 94%"}
{"smiles": "CN(C)C1(CNC(=O)c2ccc(S(C)(=O)=O)cc2)CCCCC1", "GTP binding activity": "inactive: 99%"}
{"smiles": "CC(=O)NC(SC(=S)N(C)C)C(Cl)(Cl)Cl", "note": "(stereo not given)", "GTP binding activity": "inactive: 103%"}
{"smiles": "C(Cc1nn[nH]n1)Cc1nn[nH]n1", "GTP binding activity": "inactive: 102%"}
{"smiles": "O=C(OC1CN2CCC1CC2)c1cccc(Cl)c1", "note": "(stereo not given)", "GTP binding activity": "inactive: 103%"}
{"smiles": "O=P(Nc1ccccn1)(c1ccc(Br)cc1)c1ccc(Br)cc1", "GTP binding activity": "inactive: 91%"}
{"smiles": "CC(C)C(=O)NC(Sc1ccccc1)C(Cl)(Cl)Cl", "note": "(stereo not given)", "GTP binding activity": "inactive: 101%"}
{"smiles": "O=P(Nc1nccs1)(c1ccccc1)c1ccccc1", "GTP binding activity": "inactive: 102%"}
{"smiles": "c1nnnn1CCn1cnnn1", "GTP binding activity": "inactive: 103%"}
{"smiles": "CC(=O)Nc1ccc(Oc2c([N+](=O)[O-])cc([N+](=O)[O-])cc2[N+](=O)[O-])cc1", "GTP binding activity": "inactive: 84%"}
{"smiles": "O=P1(Nc2nc3ccc(Cl)cc3s2)COc2ccccc2O1", "note": "(stereo not given)", "GTP binding activity": "inactive: 93%"}
{"smiles": "CCOc1ccc(C2=NCC(CBr)S2)cc1", "note": "(stereo not given)", "GTP binding activity": "inactive: 96%"}
{"smiles": "CC(C)(C)C(=O)NC(Sc1ccccc1)C(Cl)(Cl)Cl", "note": "(stereo not given)", "GTP binding activity": "inactive: 97%"}
{"smiles": "COC(=O)c1cc2c(s1)N=C(c1ccccc1)N(C)P2(=O)N1CCOCC1", "note": "(stereo not given)", "GTP binding activity": "inactive: 94%"}
{"smiles": "CC(=O)NC(SC(=S)N(CC(C)C)CC(C)C)C(Cl)(Cl)Cl", "note": "(stereo not given)", "GTP binding activity": "inactive: 94%"}
{"smiles": "Cc1ccc(OP(=O)(Nc2ccccn2)Oc2ccc(C)cc2)cc1", "GTP binding activity": "inactive: 94%"}
{"smiles": "CCC(=O)N1C2C3N(C(=O)CC)C1C1N(C(=O)CC)C(C(N1C(=O)CC)N3C(=O)CC)N2C(=O)CC", "GTP binding activity": "inactive: 100%"}
{"smiles": "O=c1c2cc([N+](=O)[O-])ccc2[nH]c2c([N+](=O)[O-])cc([N+](=O)[O-])cc12", "GTP binding activity": "inactive: 94%"}
{"smiles": "CCNC(=S)/N=C(\\N)N[N+](=O)[O-]", "GTP binding activity": "inactive: 94%"}
{"smiles": "O=C(NC1CCS(=O)(=O)C1)NP(=S)(Oc1ccccc1)Oc1ccccc1", "note": "(stereo not given)", "GTP binding activity": "inactive: 95%"}
{"smiles": "c1ccc(-c2nn[nH]n2)c(-c2nn[nH]n2)c1", "GTP binding activity": "inactive: 97%"}
{"smiles": "CCOC(=O)NC(Sc1ccccc1)C(Cl)(Cl)Cl", "note": "(stereo not given)", "GTP binding activity": "inactive: 98%"}
{"smiles": "CCN(N=Nc1nonc1N)c1nonc1N", "GTP binding activity": "inactive: 100%"}
{"smiles": "Cc1cc(SC(NC(=O)c2ccc(F)cc2)C(Cl)(Cl)Cl)ncn1", "note": "(stereo not given)", "GTP binding activity": "inactive: 97%"}
{"smiles": "CCOP(=O)(Nc1ccccc1)OCC", "GTP binding activity": "inactive: 105%"}
{"smiles": "CC(C)CC(=O)NC(Sc1ccc(Cl)cc1)C(Cl)(Cl)Cl", "note": "(stereo not given)", "GTP binding activity": "inactive: 100%"}
{"smiles": "Oc1ccccc1CNc1ccccn1", "GTP binding activity": "inactive: 100%"}
{"smiles": "O=C(NC(Sc1ccncn1)C(Cl)(Cl)Cl)c1ccccc1", "note": "(stereo not given)", "GTP binding activity": "inactive: 97%"}
{"smiles": "Cc1c2non([O-])c-2c(C)[n+](=O)[n+]1[O-]", "GTP binding activity": "inactive: 97%"}
{"smiles": "NC(=O)c1cc([N+](=O)[O-])cc([N+](=O)[O-])c1N", "GTP binding activity": "inactive: 98%"}
{"smiles": "Cc1ccc(N/C(=N/P(=O)(N2CCOCC2)N2CCOCC2)N2CCOCC2)cc1", "GTP binding activity": "inactive: 97%"}
{"smiles": "CN1CCCC(OC(=O)C(c2ccccc2)c2ccccc2)C1", "note": "(stereo not given)", "GTP binding activity": "inactive: 100%"}
{"smiles": "Clc1ccc(Cl)c(NC2=NCC(CBr)S2)c1", "note": "(stereo not given)", "GTP binding activity": "inactive: 95%"}
{"smiles": "CCN(/C(=N/P(=O)(N1CCOCC1)N1CCOCC1)N1CCOCC1)c1ccc(OC)cc1", "GTP binding activity": "inactive: 101%"}
{"smiles": "CN(C)C(=O)OCCc1n(C)cc[n+]1C", "GTP binding activity": "inactive: 99%"}
{"smiles": "CC1CCN(C(=O)Oc2c(Cl)cc(Cl)c3cccnc23)CC1", "GTP binding activity": "inactive: 99%"}
{"smiles": "COc1ccc(C2=NCC(CBr)S2)cc1", "note": "(stereo not given)", "GTP binding activity": "inactive: 97%"}
{"smiles": "O=[N+]([O-])c1cccc2n[nH]nc12", "GTP binding activity": "inactive: 106%"}
{"smiles": "CC(=O)N1C2C3N(C(C)=O)C1C1N(C(C)=O)C(C(N1C(C)=O)N3C(C)=O)N2C(C)=O", "GTP binding activity": "inactive: 95%"}
{"smiles": "Cc1ccc(NP(=O)(Oc2ccccc2)Oc2ccccc2)nc1", "GTP binding activity": "inactive: 99%"}
{"smiles": "CCc1nc2c(n1)c1c(non1O)c1c2no[n+]1[O-]", "GTP binding activity": "inactive: 95%"}
{"smiles": "O=[N+]([O-])c1cc([N+](=O)[O-])c(CCNc2ccccc2)c([N+](=O)[O-])c1", "GTP binding activity": "inactive: 99%"}
{"smiles": "O=[N+]([O-])c1ncn(CCn2ncnc2[N+](=O)[O-])n1", "GTP binding activity": "inactive: 96%"}
